Experimental data as given in PubChem BioAssay AID463079 (The Scripps Research Institute Molecular Screening Center, 2010).
This is a selection; strong and weak results do not stand in their true shares. The source made the active and inactive calls.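 How the source made its calls: active means inhibition above that plate's mean sample inhibition plus 3 SD (cut at about 26% in these data); inactive means the rest.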

Assay: ATP-evoked calcium signal inhibitors, parental CHO, primary screen, counter-screen for OX1R antagonist project, cell-based, fluorescence, Fluo-8 calcium dye (AID 463079);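 further: 0% = ATP-challenged DMSO wells and 100% = DMSO wells without ATP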
Settings: parental CHO-K1, ATP-induced calcium, Fluo-8 fluorescence; at 5.6 µM; hits give high values
With CCC(=O)N(c1ccccc1)C1(COC)CCN(CCc2cccs2)CC1 the inhibition was inactive: -21.4%. For CCC(=O)N(c1ccccc1)C1(COC)CCN(CCn2nnn(CC)c2=O)CC1, the inhibition was inactive: -3.86%. With CCC(=O)N(c1ccccc1)C1CCN(CCc2ccccc2)CC1 the inhibition was inactive: -17.3%.
